Patent US11608319B2, “Beta-amino acid derivative, kinase inhibitor and pharmaceutical composition containing the same, and method for performing an in vivo related application that benefits from the inhibition of a kinase” (Industrial Technology Research Institute, priority 2019, dated 2023)
Structures can show the parent of a compound that is named as a salt.

Assays:
rabbit eyes = assay: Safety margin assay (eye irritation, OECD/OCDE 405); conditions: in vivo
[1] = test system: rabbit eyes with high intraocular pressure induced by magnetic beads; assay: Model of magnetic bead induced high intraocular pressure rabbit (intraocular pressure >30 mmHg); format: in vivo, New Zealand white rabbit
From the text: Evaluation of the effect of reducing intraocular pressure in model of magnetic bead induced high intraocular pressure rabbit (high intraocular pressure model with intraocular pressure >30 mmHg)
Experimental animal: New Zealand white rabbit, male, body weight 2.0-3.0 kg. New Zealand white rabbits were purchased from Huijun Farm (Changhua, Taiwan) before the experiment and were raised in the Animal Center of National Chiao Tung University.
Experimental method: After weighing and grouping male New Zealand white rabbits, the New Zealand white rabbits were anesthetized with Zoletil 50 0.2 mL/kg. 50 μL of magnetic bead solution (50 mg/mL, magnetic bead size of 10 μm) was injected into the left and right anterior eye chambers of the rabbit under anesthesia to make rabbit eyes become a state of high intraocular pressure. After the injection to the anterior chamber of the eye, a strong […] iron magnet ring was immediately put around the eye for 10-20 minutes to make the magnetic beads completely block the drainage tissue of the aqueous humor. After disinfecting the eyeball with antibiotics, moisturizing eye ointment was provided to restore the eyeball, and the intraocular pressure rising was waited. […] The experiment was conducted for 2 consecutive days.

SMILES | Safety margin: Therapeutic index (TI) (rabbit eyes) | effectiveness relative to eye drops containing 0.02% AR-13324 ([1]; eye drop containing 1% Compound 7) | effectiveness relative to eye drops containing 0.02% AR-13324 ([1]; eye drop containing 0.1% Compound 20)
NCC(C(=O)Nc1ccc(-c2cn[nH]c2)cc1)c1ccccc1 (racemic) [Compound 7, N-(4-(1H-pyrazol-4-yl)phenyl)-3-amino-2-phenylpropanamide dihydrochloride] | 3 | more than 3 times | 
NC[C@@H](C(=O)Nc1ccc(-c2cn[nH]c2)cc1)c1ccccc1 [Compound 20, (S)—N-(4-(1H-pyrazol-4-yl)phenyl)-3-amino-2-phenylpropanamide dihydrochloride] |  |  | more than twice as effective
